Like-named read-outs stand apart in the source and are kept apart here.

For test [1], the system named is SK-MEL-5 melanoma cells. Nature of the test: treatment-sensitization activity assay with PLX-4720 on SK-MEL-5 cells. To be noted: PLX-4720 10 μM or compound of formula (I) 1 μM alone; 3 days; SK-MEL-5. An excerpt: Sensitization through a compound to other treatments can be assessed by investigating the growth behaviour of cancer cells being not or only poorly responsive to said other treatments in the presence of the sensitizing compound in a combination treatment. The sensitization activity of a compound falling under general formula (I) was investigated in a combination treatment with the B-Raf-V600E inhibitor PLX-4720 (MedChemExpress, #HY-51424) in a viability assay on PLX-4720-poorly responsive SK-MEL-5 melanoma cells harbouring a BRAF V600E mutation. SK-MEL-5 cells, obtainable from the American Type Culture Collection (ATCC) under the accession number ATCC-HTB-70, were cultivated in EMEM medium (ATCC, #30-2003) containing 10% fetal bovine serum (Fisher Scientific, Gibco™ #A31608) at 37 °C and 5% CO2. The viability assay was performed according to the protocol as described above using alamarBlue® (Bio-Rad Serotec GmbH, BUF012B). To this end, SK-MEL-5 cells were seeded into 96-well plates (CORNING #3598) suitable for fluorescence assays at a cell number of 4'000 cells per well containing 10 μL per well of 10× compound working solutions or the empty carrier DMSO as control. The cells were treated with compounds at final concentrations of 1 μM for the compound of formula (I) and 10UM for PLX-4720. […] Relative viability values were calculated from the fluorescence intensities as described above. […]

The test system of test [2] is HCT-116 cells. Description: combination treatment activity assay with syrosingopine on HCT-116 cells. To be noted: syrosingopine 10 μM or compound of formula (I) 10 nM alone, 2 days. As to the method:
The synergistic or additive activity of a compound falling under general formula (I) was investigated in a combination treatment with the MCT1/MCT4 inhibitor syrosingopine (TargetMol, #TN2252) in a viability assay on MDA-MB-231 cells cultured in D-Glucose-containing RPMI 1640 medium (Fisher Scientific, Gibco™ #72400) supplemented with 10% fetal bovine serum (Fisher Scientific, Gibco™ #A31608) and on HCT-116 cells cultured as described above. The viability assay was performed according to the protocol as described above using alamarBlue® (Bio-Rad Serotec GmbH, BUF012B). To this end, according cells were seeded into 96-well plates (CORNING, #3598) suitable for fluorescence assays at a cell number of 7'000 cells per well for MDA-MB-231 and 7'000 cells per well for HCT-116, and incubated over night at 37 °C and 5% CO2. Then, in a volume of 90 μL medium per well the cells were treated with compounds at a final concentration of 10 nM for the compound of formula (I) and 10 μM for syrosingopine by adding 10 μL per well of a 10× compound working solution or the empty carrier DMSO as control. […] Relative viability values were calculated from the fluorescence intensities as described above. […]

The test system of test [3] is MDA-MB-231 cells. Description: combination treatment activity assay with syrosingopine on MDA-MB-231 cells. To be noted: 2 days. As to the method:
The synergistic or additive activity of a compound falling under general formula (I) was investigated in a combination treatment with the MCT1/MCT4 inhibitor syrosingopine (TargetMol, #TN2252) in a viability assay on MDA-MB-231 cells cultured in D-Glucose-containing RPMI 1640 medium (Fisher Scientific, Gibco™ #72400) supplemented with 10% fetal bovine serum (Fisher Scientific, Gibco™ #A31608) and on HCT-116 cells cultured as described above. The viability assay was performed according to the protocol as described above using alamarBlue® (Bio-Rad Serotec GmbH, BUF012B). To this end, according cells were seeded into 96-well plates (CORNING, #3598) suitable for fluorescence assays at a cell number of 7'000 cells per well for MDA-MB-231 and 7'000 cells per well for HCT-116, and incubated over night at 37 °C and 5% CO2. Then, in a volume of 90 μL medium per well the cells were treated with compounds at a final concentration of 10 nM for the compound of formula (I) and 10 μM for syrosingopine by adding 10 μL per well of a 10× compound working solution or the empty carrier DMSO as control. The 10× working solutions were prepared by diluting both compounds from their 2000×DMSO stock-solutions together 1:200 each in H2O (Water For Injection, WFI, Fisher Scientific, Gibco™ #A12873) for the combination treatment, or by diluting their 2000×DMSO stock-solutions individually with the empty carrier DMSO 1:200 in H2O for the corresponding single treatments. Addition of the compound working solutions into the wells yielded a final assay volume of 100 μL per well containing 0.1% v/v DMSO. After 2 days incubation at 37 °C and 5% CO2, the cells were subjected to the alamarBlue® Proliferation Assay as described above. Relative viability values were calculated from the fluorescence intensities as described above.
A decrease in relative viability upon single treatment was not observed for the tested compounds of formula (I) and less than 25% for syrosingopine. […]

Test [4] concerns LL/2 cells. Description: alamarBlue proliferation assay with LL/2 cells. To be noted: read-out: Activity on LL/2: IC50; LL/2 murine Lewis lung carcinoma cells, DMEM medium, 10% FBS.
Test [5] has as its system HEP-G2 cells. Nature of the test: alamarBlue proliferation assay with HEP-G2 cells. To be noted: read-out: Activity on HEP-G2: IC50, RPMI 1640 medium, 10% FBS. A general note: Resazurin is reduced to fluorescent resorufin, in cell work by metabolically active cells.
For test [6], the system named is CF21.T cells. Description: alamarBlue proliferation assay with CF21.T cells. To be noted: read-out: Activity on CF21.T: IC50; CF21.T canine cells, DMEM medium, 10% FBS.
Test [7] deals with TANQUE cells. Nature of the test: alamarBlue proliferation assay with TANQUE cells. To be noted: read-out: Activity on TANOUE: IC50, RPMI 1640 medium, 10% FBS.
Test [8] has as its system MDA-MB-231 cells. Nature of the test: alamarBlue proliferation assay with MDA-MB-231 cells (glucose-free Leibovitz's L-15 medium).
Test [9] concerns A-375 cells. Nature of the test: alamarBlue proliferation assay with A-375 cells. To be noted: read-out: Activity on A-375: IC50, DMEM medium, 10% FBS.
Test [10] relates to NB-4 cells. Nature of the test: alamarBlue proliferation assay with NB-4 cells. To be noted: read-out: Activity on NB-4: IC50, RPMI 1640 medium, 10% FBS.
For test [11], the system named is A-431 cells. Description: alamarBlue proliferation assay with A-431 cells. To be noted: read-out: Activity on A-431: IC50, DMEM medium, 10% FBS.
Test [12] relates to HPEKp cells. Nature of the test: proliferation assay with human epidermal keratinocyte progenitors (HPEKp), selectivity versus MDA-MB-231. To be noted: read-out: Activity (HPEK); HPEK cells (HPEKp); antiproliferative activity, class by IC50.
Test [13] has as its system A-549 cells. Nature of the test: alamarBlue proliferation assay with A-549 cells. To be noted: read-out: Activity on A-549: IC50, DMEM medium, 10% FBS.
Test [14] deals with HCT-116 cells. Nature of the test: alamarBlue proliferation assay with HCT-116 cells. To be noted: read-out: Activity on HCT-116: IC50, McCoy's 5A medium, 10% FBS.
Test [15] relates to BHY cells. Nature of the test: alamarBlue proliferation assay with BHY cells. To be noted: read-out: Activity on BHY: IC50, DMEM medium, 10% FBS.
The test system of test [16] is HCC-1937 cells. Nature of the test: alamarBlue proliferation assay with HCC-1937 cells. To be noted: read-out: Activity on HCC-1937 (IC50), day 5. An excerpt: (§1) These hyperproliferative processes can be benign or malignant and include hyperplasia, neoplasia, cancer and pre-cancerous lesions, and metastases. […] The readout was taken with a multi-well plate-reader (Tecan Spark®) in the fluorescence mode with applying a filter for excitation at 560 nm (band width 10 nm) and for emission at 590 nm (band width 10 nm). […]

In test [17] the test system is T-47D cells. Nature of the test: alamarBlue proliferation assay with T-47D cells. To be noted: read-out: Activity on T-47D (IC50), day 5.
The subject of test [18] is LOUCY cells. Description: alamarBlue proliferation assay with LOUCY cells. To be noted: read-out: Activity on LOUCY (IC50), day 5. The method, then: These hyperproliferative processes can be benign or malignant and include hyperplasia, neoplasia, cancer and pre-cancerous lesions, and metastases. […] To this end, according cells were seeded into 96-well plates (CORNING #3598) suitable for fluorescence assays at following initial cell numbers: 1000 cells per well for HPEK; 3000 cells per well for MDA-MB-231, 8000 cells per well for ZR-75-30, 1500 cells per well for HCC-1395, 1500 cells per well for HCC-1937, 3000 cells per well for T-47D, 1500 cells per well for JURKAT, 5000 cells per well for RPMI-8402, 9000 cells per well for LOUCY, 1500 cells per well for TANQUE, 9000 cells per well for REC-1, 1000 cells per well for HL-60, 1000 cells per well for NB-4, 9000 cells per well for TT, 2000 cells per well for HeLa, 2000 cells per well for 23132/87, 9000 cells per well for SW-948, 700 cells per well for HCT-116, 1500 cells per well for BHY, 700 cells per well for A-431, 1500 cells per well for HEP-G2, 500 cells per well for NCI-H460, 1000 cells per well for A-549, 1500 cells per well for PANC-1, 2500 cells per well for U-87 MG, 700 cells per well for A-375, 1500 cells per well for RVH-421, 2000 cells per well for SW-1353, 500 cells per well for C2C12, 500 cells per well for LL/2, and 3000 cells per well for CF21.T. In a volume of 90 μL per well of culture medium the cells were treated with compounds at indicated final concentrations by adding 10 μL per well of 10× compound working solutions from 1:100 pre-diluted 1000× compound DMSO stock-solutions in H2O (Water For Injection, WFI, Fisher Scientific, Gibco™ #A12873) or with the empty carrier DMSO (AppliChem, #A3672) at 0.1% v/v as control yielding a final volume of 100 μL per well. […] The readout was taken with a multi-well plate-reader (Tecan Spark®) in the fluorescence mode with applying a filter for excitation at 560 nm (band width 10 nm) and for emission at 590 nm (band width 10 nm). […]

Test [19] has as its system RPMI-8402 cells. Nature of the test: alamarBlue proliferation assay with RPMI-8402 cells. To be noted: read-out: Activity on RPMI-8402 (IC50), day 5.
Description: as §1

Setting [20] is: read-out: Activity on MDA-MB-231 (IC50), glucose-free Leibovitz's L-15, 10% FBS, day 5, alamarBlue.

Turning to `CCCS(=O)(=O)Nc1ccc(F)c(C(=O)c2c[nH]c3ncc(Cl)cc23)c1F`, in test [1], the “decrease in relative viability upon single treatments” value was “less than 20%”.

With `CCOC(=O)Oc1c(OC)cc(C(=O)O[C@@H]2C[C@@H]3CN4CCc5c([nH]c6cc(OC)ccc56)[C@H]4C[C@@H]3[C@H](C(=O)OC)[C@H]2OC)cc1OC`, the “decrease in relative viability upon single treatment” value is “less than 5%” in [2] and “less than 25%” in [3] (syrosingopine 10 μM alone, MDA-MB-231).

For the compound `COC1CCC(c2ccc(Oc3ccc(C(=O)N4CCN(Cc5ccc(OC(F)(F)F)cc5)CC4)nc3)c(CO)c2)CC1` (stereo not drawn), the IC50 in [4] was at most 0.2 µM; in [5], at most 0.2 µM; in test [6], at most 0.2 µM; in test [7] it was at most 0.2 µM; in test [8] (read-out: Activity (MDA), MDA-MB-231 cells, antiproliferative activity, class by IC50) it was below 1 µM; in test [8] (setting [20]), at most 0.2 µM. For the same compound, the IC50 in [9] was at most 0.2 µM; in test [10] it was at most 0.2 µM; in test [11], at most 0.2 µM; in [12], below 10 µM; in [13], at most 0.2 µM; in [14] it was at most 0.2 µM. For the same compound, the IC50 in test [15] is at most 0.2 µM. In [3] (compound 10 nM + syrosingopine 10 μM, D-glucose-containing RPMI 1640), the “Activity as treatment enhancer (additional viability decrease as compared to single treatment with syrosingopine)” value is “viability decrease >45%”.

Take `CC(=O)N1CCN(C(=O)c2ccc(Oc3ccc(C4CCCCC4)cc3C=O)cc2)CC1`: the IC50 in test [16] was at most 20 µM; in test [5], at most 20 µM; in [17], at most 20 µM; in [8] (setting [20]), at most 20 µM; in [18], at most 5 µM; in [19], at most 20 µM. The IC50 in [11] is at most 20 µM.

Take `C#CCN1CCN(C(=O)c2ccc(Oc3ccc(C4CCCCC4)cc3C=O)cc2)CC1`: the IC50 in [8] (setting [20]), in [18] and in [11] was at most 20 µM throughout.

Values taken from patent publication US20260384421A1, “NOVEL COMPOUNDS THAT CAN BE USED AS THERAPEUTIC AGENTS” (published 2026).
